# Yeast mating assay 1: variants of the scFv Ab-14

Source: Engelhart et al. 2022 (doi:10.1038/s41597-022-01779-4), MIT Lincoln Laboratory and A-Alpha Bio; data file from the FLAb repository.

Target peptide (SARS-CoV-2 spike, HR2 region): PDVDLGDISGINAS

Each scFv is VH, a 15-residue (Gly4Ser)3 linker, VL, as in the parent Ab-14, and differs from it in the CDRs of the light chain only.
VH: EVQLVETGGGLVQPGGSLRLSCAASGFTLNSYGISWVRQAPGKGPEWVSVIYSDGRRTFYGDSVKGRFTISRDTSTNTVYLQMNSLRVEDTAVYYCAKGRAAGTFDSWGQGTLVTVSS
VL: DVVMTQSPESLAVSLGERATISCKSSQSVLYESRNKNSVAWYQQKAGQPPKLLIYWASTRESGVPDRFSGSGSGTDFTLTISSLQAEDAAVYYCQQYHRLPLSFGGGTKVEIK

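Phage display of a naive human antibody library on the peptide gave the parent. AAYL50 was designed without a model: most single CDR substitutions and a random sample of double and triple ones. In AlphaSeq, yeast of one mating type display the scFv and yeast of the other type display the target. Binding brings cells together so that they mate, and sequencing counts the barcode pairs among the diploids. Each replicate has its own calibration line, from reference interactions of the BCL2 family. Each pool was mated in three replicate cultures.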

Sequences are complete VL domains. Kd is apparent (estimated from mating counts) and averaged on the log scale over replicates with a signal. Smaller is tighter. "nd" marks a missing value. The strain was present, yet no cells mated with the target were sequenced in any replicate, which points to weak or no binding. Empty control strains, which show no peptide, gave a signal in 18% of pairings with library AAYL50; the median was 15 µM and 95% of these signals were weaker than 970 nM. No background was subtracted. Also given: how often the same scFv was detected with the empty control strains.

VL	apparent Kd	replicates with signal	signal with controls
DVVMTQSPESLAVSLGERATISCKSSQSVLYESRNCNSVAWYQQKAGQPPKLLIYWPSTREAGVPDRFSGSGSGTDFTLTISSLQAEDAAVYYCQQYHRLPLSFGGGTKVEIK	61 µM	3 of 3	4 of 9
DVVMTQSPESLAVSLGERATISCKISQSVLYESANKNSVAWYQQKAGQPPKLLIYWASTRESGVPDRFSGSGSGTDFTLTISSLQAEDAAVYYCQIYHRLPLSFGGGTKVEIK	nd	0 of 3	0 of 9
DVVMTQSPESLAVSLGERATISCKSEQSVTYESTNKNSVAWYQQKAGQPPKLLIYWASTRESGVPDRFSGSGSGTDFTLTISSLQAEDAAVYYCQQYHRLPLSFGGGTKVEIK	2.2 nM	3 of 3	4 of 9
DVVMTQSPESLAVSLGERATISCKSSQSVLYESRNKNSWAWYQQKAGQPPKLLIYWASTRESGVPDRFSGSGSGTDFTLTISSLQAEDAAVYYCQMDHRLPLSFGGGTKVEIK	nd	0 of 3	0 of 9
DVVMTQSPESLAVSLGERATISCKSSQKVLYETRNKNSVAWYQQKAGQPPKLLIYWASTRESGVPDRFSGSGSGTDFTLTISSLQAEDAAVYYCVQYHRLPLSFGGGTKVEIK	nd	0 of 3	0 of 9
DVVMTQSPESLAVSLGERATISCKSSQHVNYRSRNKNSVAWYQQKAGQPPKLLIYWASTRESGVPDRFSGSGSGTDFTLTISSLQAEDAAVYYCQQYHRLPLSFGGGTKVEIK	nd	0 of 3	0 of 9
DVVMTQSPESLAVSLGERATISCKSSQSVLYESRNKNSVAWYQQKAGQPPKLLIYWASTRESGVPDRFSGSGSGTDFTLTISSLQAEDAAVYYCELYHRLPLSFGGGTKVEIK	300 nM	3 of 3	2 of 9
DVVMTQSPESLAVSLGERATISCKSSQSVMYESRNKNSVAWYQQKAGQPPKLLIYLASTRESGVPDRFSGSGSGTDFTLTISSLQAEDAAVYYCAQYHRLPLSFGGGTKVEIK	450 nM	1 of 3	1 of 9
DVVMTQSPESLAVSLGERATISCKSSQSVLYESRNKNSVAWYQQKAGQPPKLLIYWQSTRESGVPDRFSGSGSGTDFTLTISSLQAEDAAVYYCQQYIRLPGSFGGGTKVEIK	nd	0 of 3	0 of 9
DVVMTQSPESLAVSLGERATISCKSSQSVLYESRNKNSVAWYQQKAGQPPKLLIYWTSPRESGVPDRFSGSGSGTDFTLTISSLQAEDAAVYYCQQYHRLPSSFGGGTKVEIK	nd	0 of 3	2 of 9

The remaining entries, values ahead:

apparent Kd	replicates with signal	signal with controls	VL
54 µM	2 of 3	2 of 9	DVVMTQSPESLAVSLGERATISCKSSQSVLYESRNKNSVMWYQQKAGQPPKLLIYWASDRESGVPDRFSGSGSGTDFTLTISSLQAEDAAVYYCQQTHRLPLSFGGGTKVEIK
6.1 µM	1 of 3	0 of 9	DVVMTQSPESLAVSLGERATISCKSSQMVLYESRNKNQRAWYQQKAGQPPKLLIYWASTRESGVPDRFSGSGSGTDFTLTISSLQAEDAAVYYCQQYHRLPLSFGGGTKVEIK
25 nM	3 of 3	1 of 9	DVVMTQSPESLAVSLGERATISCKSSQSVLYESRNKNSVAWYQQKAGQPPKLLIYWASTRESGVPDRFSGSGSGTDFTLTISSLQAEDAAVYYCQQYHRLMLEFGGGTKVEIK
8.6 µM	3 of 3	4 of 9	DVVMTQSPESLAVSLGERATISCKSSQSVYYESRNVNSKAWYQQKAGQPPKLLIYWASTRESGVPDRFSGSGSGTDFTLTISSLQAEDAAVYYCQQYHRLPLSFGGGTKVEIK
nd	0 of 3	2 of 9	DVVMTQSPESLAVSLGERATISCKSSQSVYYESRNKNSVAWYQQKAGQPPKLLIYWASTRESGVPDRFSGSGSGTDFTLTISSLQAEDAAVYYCKQYARLPLSFGGGTKVEIK
nd	0 of 3	0 of 9	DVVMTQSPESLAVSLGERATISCKSSQSVLYESRNKNSVAWYQQKAGQPPKLLIYWASTRESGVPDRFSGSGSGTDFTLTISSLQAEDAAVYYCWMYHRCPLSFGGGTKVEIK
940 nM	3 of 3	0 of 9	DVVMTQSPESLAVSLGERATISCKSSQSVLYASRNKNSVAWYQQKAGQPPKLLIYWASTRHKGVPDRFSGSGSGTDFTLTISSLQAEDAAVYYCQQYHRLPLSFGGGTKVEIK
38 nM	3 of 3	7 of 9	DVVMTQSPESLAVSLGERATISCKSSQSVVYESRNKNSVAWYQQKAGQPPKLLIYWASHRENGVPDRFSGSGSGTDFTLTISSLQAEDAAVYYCQQYHRLPLSFGGGTKVEIK
7.8 µM	2 of 3	7 of 9	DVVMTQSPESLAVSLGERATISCTSSQMVLYESRNKNSVAWYQQKAGQPPKLLIYWASTRESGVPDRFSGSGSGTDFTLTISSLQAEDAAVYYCQQYHRLPLFFGGGTKVEIK
6.7 µM	1 of 3	0 of 9	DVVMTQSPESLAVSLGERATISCKSSQSVLYESRNRNSVAWYQQKAGQPPKLLIYWASTRRSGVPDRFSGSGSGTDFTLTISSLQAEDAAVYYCQQYHRLPGSFGGGTKVEIK
80 µM	1 of 3	1 of 9	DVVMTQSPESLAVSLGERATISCKSSQSGLYESRNKNEVAWYQQKAGQPPKLLIYWPSTRESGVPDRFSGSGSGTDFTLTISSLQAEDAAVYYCQQYHRLPLSFGGGTKVEIK

The opening 2 entries, copied out:

VL	apparent Kd	replicates with signal	signal with controls
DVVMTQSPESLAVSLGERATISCKSSQSVLYESRNCNSVAWYQQKAGQPPKLLIYWPSTREAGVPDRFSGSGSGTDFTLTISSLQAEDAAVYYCQQYHRLPLSFGGGTKVEIK	61 µM	3 of 3	4 of 9
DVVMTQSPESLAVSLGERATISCKISQSVLYESANKNSVAWYQQKAGQPPKLLIYWASTRESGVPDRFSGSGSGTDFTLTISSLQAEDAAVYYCQIYHRLPLSFGGGTKVEIK	nd	0 of 3	0 of 9